Laboratory results published in patent publication US20240390467A1, “PROHEMOSTATIC PROTEINS FOR THE TREATMENT OF BLEEDING” (Academisch Ziekenhuis Leiden, priority 2014, published 2024).

Assays:
[1] = system: clotting of plasma, normal human plasma as reference; experiment: Prothrombin time-based clotting assay; format: biochemical
Method: FIGS. 13A and 13B: Tissue factor (TF)-initiated TG profile for r-hFX and c-FX-C. FIG. 13A: Plasma TG at low TF (2 pM) in the absence and presence of 2 μM DOAC Apixaban (Apixa) by 1 unit r-hFX, r-hFX plus Apixaban, c-FXa-C or c-FXa-C plus Apixaban. One unit of r-hFX (7 μg/ml) or c-FXa-C (16 μg/ml) was defined by a prothrombin time-based clotting assay using normal human plasma as reference. Curves represent the average of at least three independent experiments. FIG. 13B: Plasma TG at high TF (20 pM).
Thrombin generation assays: Thrombin generation was adapted from protocols earlier described (Hemker et al., 2003). Briefly, thrombin generation curves were obtained by supplementing FX-depleted plasma with Tissue Factor (TF, 2 or 20 pM final), Corn Trypsin Inhibitor (70 μg/ml), PCPS (20 μM) and 1 Unit (prothrombin time-specific clotting activity) of r-hFX (7 μg/ml) or chimeric FX-C (16 μg/ml). Thrombin formation was initiated by adding Substrate buffer (Fluca) to the plasma. […] Thrombin formation was determined every 20 seconds for 30 minutes and corrected for the calibrator, using the software of Thrombinoscope. The lag time, mean endogenous thrombin potential (the area under the thrombin generation curve), time to peak and peak thrombin generation, was calculated from at least three individual experiments.

[2] = system: thrombin generation in FX-depleted plasma; experiment: Tissue factor (TF)-initiated thrombin generation in FX-depleted plasma; format: biochemical, human
Method: Thrombin generation assays: Thrombin generation was adapted from protocols earlier described (Hemker et al., 2003). Briefly, thrombin generation curves were obtained by supplementing FX-depleted plasma with Tissue Factor (TF, 2 or 20 pM final), Corn Trypsin Inhibitor (70 μg/ml), PCPS (20 μM) and 1 Unit (prothrombin time-specific clotting activity) of r-hFX (7 μg/ml) or chimeric FX-C (16 μg/ml). Thrombin formation was initiated by adding Substrate buffer (Fluca) to the plasma. FXa thrombin generation curves were obtained by supplementing FX-depleted plasma with Corn Trypsin Inhibitor (70 μg/ml), assay buffer and PCPS (20 μM). Thrombin formation was initiated by addition of FXa premixed with Rivaroxaban or Apixaban, assay buffer without calcium and supplemented with Fluca. The final reaction volume was 120 μl, of which 64 μl was FX-depleted plasma. Thrombin formation was determined every 20 seconds for 30 minutes and corrected for the calibrator, using the software of Thrombinoscope. The lag time, mean endogenous thrombin potential (the area under the thrombin generation curve), time to peak and peak thrombin generation, was calculated from at least three individual experiments.

[3] = Edoxaban control (none), low TF 2 pM
[4] = High TF (20 pM), + Apixaban (2 μM)
[5] = Low TF (2 pM), + Apixaban (2 μM)

“r-hFX: recombinant normal human FX expressed in HEK293 cells” was tested, and the “concentration equal to 1 Unit (prothrombin time-specific clotting activity)” value [1] was 7 µg/mL, the ETP remaining ([2]; Edoxaban 50 nM, low TF 2 pM) was 99.3% and the Lagtime ([2]; Edoxaban 50 nM, low TF 2 pM) was 247 s. It also gave a Peak height % ([2]; Edoxaban 50 nM, low TF 2 pM) of 41.2%, a Time to peak ([2]; Edoxaban 50 nM, low TF 2 pM) of 618 s and an ETP remaining ([2]; Edoxaban 100 nM, low TF 2 pM) of 87.1%. For the same substance, the Lagtime ([2]; Edoxaban 100 nM, low TF 2 pM) was 297 s, the Peak height % ([2]; Edoxaban 100 nM, low TF 2 pM) was 30.8% and the Time to peak ([2]; Edoxaban 100 nM, low TF 2 pM) was 756 s. For the same substance, the ETP remaining ([2]; Edoxaban 200 nM, low TF 2 pM) was “no ETP”, the Lagtime ([2]; Edoxaban 200 nM, low TF 2 pM) was 397 s and the Peak height % ([2]; Edoxaban 200 nM, low TF 2 pM) was 23.1%. For the same substance, the Time to peak ([2]; Edoxaban 200 nM, low TF 2 pM) was 1290 s, the ETP remaining ([2]; Edoxaban 400 nM, low TF 2 pM) was “no ETP” and the Lagtime ([2]; Edoxaban 400 nM, low TF 2 pM) was 538 s. The Peak height % ([2]; Edoxaban 400 nM, low TF 2 pM) was 15.9%, the Time to peak ([2]; Edoxaban 400 nM, low TF 2 pM) was 1890 s and the ETP remaining ([2]; Edoxaban 600 nM, low TF 2 pM) was “no ETP”. The Lagtime ([2]; Edoxaban 600 nM, low TF 2 pM) was 679 s, the Peak height % ([2]; Edoxaban 600 nM, low TF 2 pM) was 13.0% and the Time to peak ([2]; Edoxaban 600 nM, low TF 2 pM) was 1932 s. The ETP remaining ([2]; Edoxaban 1000 nM, low TF 2 pM) was “no ETP”, the Lagtime ([2]; Edoxaban 1000 nM, low TF 2 pM) was 874 s and the Peak height % ([2]; Edoxaban 1000 nM, low TF 2 pM) was 10.1%. For the same substance, the Time to peak ([2]; Edoxaban 1000 nM, low TF 2 pM) was 2472 s, the ETP remaining ([2]; Edoxaban 2000 nM, low TF 2 pM) was “no ETP” and the Lagtime ([2]; Edoxaban 2000 nM, low TF 2 pM) was 1180 s. The Peak height % ([2]; Edoxaban 2000 nM, low TF 2 pM) was 7.1%, the Time to peak ([2]; Edoxaban 2000 nM, low TF 2 pM) was 2562 s and the ETP remaining [2, 3] was 100.%. It also gave a Lagtime [2, 3] of 115 s, a Peak height % [2, 3] of 100.% and a Time to peak [2, 3] of 265 s. It also gave an ETP [2, 4] of 694 ± 67 nM, a Lagtime [2, 4] of 138 ± 12 s and a Peak thrombin [2, 4] of 32 ± 4 nM. For the same substance, the Time to peak [2, 4] was 804 ± 36 s, the ETP ([2]; High TF (20 pM), no Apixaban) was 973 ± 18 nM and the Lagtime ([2]; High TF (20 pM), no Apixaban) was 48 ± 1 s. The Peak thrombin ([2]; High TF (20 pM), no Apixaban) was 338 ± 8 nM, the Time to peak ([2]; High TF (20 pM), no Apixaban) was 114 ± 6 s and the ETP [2, 5] was “no ETP”. For the same substance, the Lagtime [2, 5] was 696 ± 162 s, the Peak thrombin [2, 5] was 8 ± 4 nM and the Time to peak [2, 5] was “no peak”. For the same substance, the ETP ([2]; Low TF (2 pM), no Apixaban) was 567 ± 61 nM, the Lagtime ([2]; Low TF (2 pM), no Apixaban) was 132 ± 5 s and the Peak thrombin ([2]; Low TF (2 pM), no Apixaban) was 61 ± 4 nM. The Time to peak ([2]; Low TF (2 pM), no Apixaban) was 324 ± 6 s.
